## AlphaSeq binding of Ab-14 light chain variants to a spike HR2 peptide

From the AlphaSeq antibody data of Engelhart et al. 2022 (doi:10.1038/s41597-022-01779-4), copy in the FLAb collection.

Binding partner: SARS-CoV-2 spike HR2 peptide, sequence PDVDLGDISGINAS.

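Phage display of a naive human antibody library on the peptide gave the parent. In library AAYL50, one, two or three CDR residues were substituted; doubles and triples were drawn at random. AlphaSeq pools MATa yeast showing the antibodies with MATalpha yeast showing the peptide. Binding brings cells together so that they mate, and sequencing counts the barcode pairs among the diploids. A regression on co-assayed BCL2-family reference pairs converts the normalised counts of each replicate to an apparent Kd. The assay was run in three technical replicates.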

Parent scFv Ab-14: VH joined to VL by the linker GGGGSGGGGSGGGGS. Changes lie in the light chain CDRs alone.
VH: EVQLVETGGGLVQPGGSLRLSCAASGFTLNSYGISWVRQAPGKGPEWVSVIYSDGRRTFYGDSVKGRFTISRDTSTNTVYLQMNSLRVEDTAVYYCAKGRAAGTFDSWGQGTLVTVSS
VL: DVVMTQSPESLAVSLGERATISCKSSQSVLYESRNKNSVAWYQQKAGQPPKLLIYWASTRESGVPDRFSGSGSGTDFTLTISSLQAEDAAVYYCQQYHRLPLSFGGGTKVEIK

Variants are written as CDR1, CDR2 and CDR3 of the light chain (limits as in the source). Parent: KSSQSVLYESRNKNSVA, WASTRES, QQYHRLPLS.
Scale: log10 of Kd in nM, estimated from mating counts; low values are strong binders.
A mean of the replicates is given; it leaves out those without a signal.
Where no diploid with the target was found in any replicate, the entry reads "nd": below detection, most likely a poor binder, though not proof of it.
Three control strains display no target. For library AAYL50, 18% of the pairings with them gave a signal, with a median of 4.19 and one signal in twenty below 2.99, so weak values seen in few replicates may be background. For each scFv, signals with the empty controls are counted beside the result.
Parent in this assay: reference entry 0.65, copy in this library 1.68.

log10 Kd (nM), mean	detected	control signals	CDR-L1	CDR-L2	CDR-L3
nd	0 of 3	0 of 9	KSSQSVLMESRNKNSVG	WASTRES	QMYHRLPLS
1.90	3 of 3	0 of 9	ESSQSVTYESRNKNSVA	WASTREW	QQYHRLPLS
1.33	3 of 3	6 of 9	KSSQEPLYESRNKASVA	WASTRES	QQYHRLPLS
0.84	3 of 3	1 of 9	KSSVSVLYEPRNKNSVA	WASTRES	QQYHRLPLS
4.56	1 of 3	1 of 9	KSSYSVLYEYRKKNSVA	WASTRES	QQYHRLPLS
4.58	3 of 3	5 of 9	KSSQSVLYESRKKNSVA	WAPTRES	QQYHRLPLS
1.50	3 of 3	3 of 9	KHSQSVLYESINSNSVA	WASTRES	QQYHRLPLS
4.83	1 of 3	2 of 9	KSSQSVLYESRNKNSVA	VASWRNS	QQYHRLPLS
3.21	1 of 3	0 of 9	KSSQSVLYESRFKNSVA	WESFRES	QQYHRLPLS
0.98	3 of 3	0 of 9	KSSQSVLYESRNKNSVA	WASTREE	QQYHNLPLA
0.99	3 of 3	3 of 9	KSSQSVLPESRNKNSVA	WASTRTS	QQYNRLPLS
5.46	1 of 3	2 of 9	KSSQSVLYESRNKNLVA	WASTRQP	QQYHRLPLS
3.85	1 of 3	1 of 9	KSSQSVLYECRNHNSVA	WAFTRES	QQYHRLPLS
nd	0 of 3	1 of 9	KSSQLVLYESRNKNMVA	WASTREH	QQYHRLPLS
nd	0 of 3	0 of 9	KSSQSVLYESRNKNSVA	WVQTRES	QQYDRLPLS
1.32	3 of 3	0 of 9	KTSQSVLYESRNKNSVA	CASTRES	QQYHRLPNS
3.68	1 of 3	2 of 9	KSSQQVLYESRNKNSVA	WASTREA	DQYHRLPLS
nd	0 of 3	2 of 9	KSSQSVGYESRNKNSVA	VASTRES	QQYHRLPPS
2.15	3 of 3	2 of 9	KPSQSVLYESRNKNSVA	QASTRIS	QQYHRLPLS
1.71	3 of 3	3 of 9	KSSQSVPYVSRNKNSVA	WASTRFS	QQYHRLPLS
0.75	3 of 3	2 of 9	KSSQSVLYESRNVNSIA	WASTRES	QQYGRLPLS
1.51	3 of 3	3 of 9	KSSQSVLYQSRNKNSVA	WASTRES	QQQHRLPLF
3.21	1 of 3	0 of 9	KSSQQVLYEFRFKNSVA	WASTRES	QQYHRLPLS
nd	0 of 3	1 of 9	KSSQSVLAESRMKNSQA	WASTRES	QQYHRLPLS
nd	0 of 3	0 of 9	KSSQSVLYESRNKNSVA	WCSTRWS	QQYHVLPLS
1.32	3 of 3	1 of 9	KSSQSVLYGSPNKNSVA	WASTRES	QQKHRLPLS
nd	0 of 3	2 of 9	KSSQSVLYESRNKNSVA	WASSEES	QQYHRLPLS
nd	0 of 3	0 of 9	KCSQSVLYESRNKNSNA	WASTRES	QQYHGLPLS
0.27	3 of 3	4 of 9	KSSQSVLYESRNQNSVA	WASTREQ	QQYHRLPLS
5.21	2 of 3	5 of 9	LSSQSVLYESRNKNSVR	WASTRES	QQYHRLPHS
2.71	1 of 3	0 of 9	KSSQSVLVESRNKNHVA	WASTRES	QQYHRLPLR
3.08	3 of 3	1 of 9	KSSQSVLYESRNKNSVA	WASTRAS	QHYHRIPLS
0.46	3 of 3	3 of 9	KSSQSVLGESTNKNSVA	WASTRES	QQYHMLPLS
nd	0 of 3	0 of 9	KSSQGVLIESRNKNYVA	WASTRES	QQYHRLPLS
-0.15	3 of 3	2 of 9	KFSQSVLYESRNSNSVA	WASTRES	QQYHRLPLS
nd	0 of 3	0 of 9	CSSQSVLYESRNKNSVA	WASHRES	QVYHRLPLS
1.86	3 of 3	1 of 9	KYSQSVLYESLNKNSVA	WASDRES	QQYHRLPLS
3.49	3 of 3	0 of 9	KSSQSVLYESRNLLSVA	WASCRES	QQYHRLPLS
-0.19	3 of 3	2 of 9	KGSQSVLYESRNKNSVA	NAVTRES	QQYHRLPLS
nd	0 of 3	1 of 9	KFSQSVLYESRNKNSVA	WASTRES	QQYHRKPLS
nd	0 of 3	0 of 9	KSSQSVLYESRNKNSVM	WASTRET	QYYHRLPLS
1.35	3 of 3	2 of 9	KSSQSVLYESRNKNSVA	WASTRAS	QQCKRLPLS
nd	0 of 3	2 of 9	KSSQSVLYESRKKNSVA	WALTRES	QQYHNLPLS
nd	0 of 3	0 of 9	KSSQSVLYESRNKNSVG	WASTRES	QQYHRAPLI
0.48	3 of 3	3 of 9	KSSQSVLYEERNKNSVA	WASQRES	QQYHREPLS
2.25	1 of 3	1 of 9	PSSGSVLRESRNKNSVA	WASTRES	QQYHRLPLS
1.61	3 of 3	2 of 9	KSSQSVDYESRNKNSVA	WAETRES	QQYHRLSLS
2.28	3 of 3	2 of 9	KSSQSIIYESRNKNSVA	WASTKES	QQYHRLPLS
3.51	1 of 3	2 of 9	KSSQSVLYESRNKNSVG	WASTREG	QQYHRLILS
1.74	3 of 3	0 of 9	YSSQSILYESRNKNSVA	WASTRDS	QQYHRLPLS
0.57	3 of 3	0 of 9	LSSQSVLYESRNKNSVA	KASTRES	QQYHRLPNS
2.78	3 of 3	2 of 9	KSSVDVLYESRNKNSVA	WASTRES	QQYHRLPIS
1.75	3 of 3	4 of 9	KDSKSVLYESRNKNSVA	WASARES	QQYHRLPLS
1.37	3 of 3	2 of 9	KSSQGVMYESRNKNSVA	WASHRES	QQYHRLPLS
0.79	3 of 3	2 of 9	KTSQSVLYESRNKNLVA	WISTRES	QQYHRLPLS
0.84	3 of 3	0 of 9	KSSQSVLYESRNKNSVA	WASTRES	QQYYRPFLS
4.86	1 of 3	2 of 9	KSSPSVLYESRNKNSVA	WASERES	QQYARLPLS
0.63	3 of 3	6 of 9	KSSQHVLYESRNKNSVA	WASTRAS	QQYDRLPLS
6.05	1 of 3	5 of 9	KSSQCVLYESRNKNSVA	WASTGES	QQYHRLPHS
4.24	3 of 3	1 of 9	KSSQSVLYESRNKNSVA	WASTRES	SQYTRLPLS
3.21	2 of 3	4 of 9	NSSQNVLYESRNKNSVA	WASTRES	QQYHDLPLS
4.38	1 of 3	4 of 9	KSSQSVLYESRNKNSQA	WASTVES	QQYHRLPLP
3.99	3 of 3	4 of 9	KSSQSVLYESRNNNSVE	WASTRES	QQYHRLPLS
1.75	3 of 3	1 of 9	KSSQSVLYSSRNKNSVA	WASTRSS	QQYDRLPLS
3.25	1 of 3	1 of 9	VSSQSVLYESRNKNSVA	WAITRES	QQYHRNPLS
0.59	3 of 3	1 of 9	KASQSVLFESRNKNSVA	WASLRES	QQYHRLPLS
2.77	3 of 3	0 of 9	KSSQSVLYEYRNHNSVA	WASTRES	QQYCRLPLS

The first 8 entries again:

CDR-L1	CDR-L2	CDR-L3	log10 Kd (nM), mean	detected	control signals
KSSQSVLMESRNKNSVG	WASTRES	QMYHRLPLS	nd	0 of 3	0 of 9
ESSQSVTYESRNKNSVA	WASTREW	QQYHRLPLS	1.90	3 of 3	0 of 9
KSSQEPLYESRNKASVA	WASTRES	QQYHRLPLS	1.33	3 of 3	6 of 9
KSSVSVLYEPRNKNSVA	WASTRES	QQYHRLPLS	0.84	3 of 3	1 of 9
KSSYSVLYEYRKKNSVA	WASTRES	QQYHRLPLS	4.56	1 of 3	1 of 9
KSSQSVLYESRKKNSVA	WAPTRES	QQYHRLPLS	4.58	3 of 3	5 of 9
KHSQSVLYESINSNSVA	WASTRES	QQYHRLPLS	1.50	3 of 3	3 of 9
KSSQSVLYESRNKNSVA	VASWRNS	QQYHRLPLS	4.83	1 of 3	2 of 9